This assay has as its target Histamine H1 receptor (Cavia porcellus, UniProt P31389). The experiment in a line: In vitro inhibition of histamine-induced contractions in guinea pig ileum. The class given is functional, tissue-based.

Chains of the proteins cited; added tags and fusions are not shown.
UniProt P31389, whole entry, looked up: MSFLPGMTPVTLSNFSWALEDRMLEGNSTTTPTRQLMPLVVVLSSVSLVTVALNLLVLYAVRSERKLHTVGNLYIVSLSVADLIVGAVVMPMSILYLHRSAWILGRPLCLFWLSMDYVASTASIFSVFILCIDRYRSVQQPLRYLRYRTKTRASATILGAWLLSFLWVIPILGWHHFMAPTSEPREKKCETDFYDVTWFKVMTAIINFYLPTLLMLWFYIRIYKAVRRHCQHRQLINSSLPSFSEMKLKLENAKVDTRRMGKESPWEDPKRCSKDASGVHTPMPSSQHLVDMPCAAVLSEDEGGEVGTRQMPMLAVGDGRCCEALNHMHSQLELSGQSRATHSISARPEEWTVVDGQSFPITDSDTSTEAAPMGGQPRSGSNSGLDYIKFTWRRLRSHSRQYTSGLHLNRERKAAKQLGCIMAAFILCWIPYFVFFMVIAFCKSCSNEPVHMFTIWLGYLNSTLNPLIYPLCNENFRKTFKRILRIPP

Each structure is given as a SMILES string.

One may read the IC50 as the concentration that gives 50% inhibition. Molecule `CCNCCn1c(N2CCN(C)CC2)nc2ccccc21` yielded an IC50 of 290 nM.
